Assay results reported in patent publication US20120308614A1, “COMPOSITION FOR THE CONTROLLED RELEASE OF BUPRENORPHINE” (Flamel Technologies, priority 2011, published 2012).

What was measured:
[1] = PBS buffer, pH 7, clearness observed by eye
[2] = 24 hours stirring at room temperature
[3] = pH 7; from AAPS PharmSciTech 2007; 8 (3) Article 62; cited from earlier work

Substance: buprenorphine 6-enanthate [BuC7]
- Amount of solubilized prodrug [1]: <0.6 mg/mL

Substance: buprenorphine 6-isobutyrate [BuC4]
- Amount of solubilized prodrug [1]: <0.8 mg/mL

Substance: buprenorphine 6-myristate [BuC14]
- amount of prodrug solubilized in the polymer solution ([2]; sodium polyacrylate grafted at 6 mol % alpha-tocopherol via alanine spacer, 32.4 mg/mL, visual control): 0.4 mg/mL
- amount of prodrug solubilized in water ([2]; water): less than 0.2 mg/mL

Substance: buprenorphine hydrochloride [BuHCl]
- Amount of solubilized prodrug [3]: 17 mg/mL

Where two headings read alike, the source gives them in different places.
